Laboratory results published in patent publication US11427581B2, “JAK inhibitor and use thereof” (ZHUHAI UNITED LABORATORIES CO., LTD., priority 2018, dated 2022).

The chains behind the UniProt entries cited, without tags or fusion partners.
UniProt P52333, whole entry: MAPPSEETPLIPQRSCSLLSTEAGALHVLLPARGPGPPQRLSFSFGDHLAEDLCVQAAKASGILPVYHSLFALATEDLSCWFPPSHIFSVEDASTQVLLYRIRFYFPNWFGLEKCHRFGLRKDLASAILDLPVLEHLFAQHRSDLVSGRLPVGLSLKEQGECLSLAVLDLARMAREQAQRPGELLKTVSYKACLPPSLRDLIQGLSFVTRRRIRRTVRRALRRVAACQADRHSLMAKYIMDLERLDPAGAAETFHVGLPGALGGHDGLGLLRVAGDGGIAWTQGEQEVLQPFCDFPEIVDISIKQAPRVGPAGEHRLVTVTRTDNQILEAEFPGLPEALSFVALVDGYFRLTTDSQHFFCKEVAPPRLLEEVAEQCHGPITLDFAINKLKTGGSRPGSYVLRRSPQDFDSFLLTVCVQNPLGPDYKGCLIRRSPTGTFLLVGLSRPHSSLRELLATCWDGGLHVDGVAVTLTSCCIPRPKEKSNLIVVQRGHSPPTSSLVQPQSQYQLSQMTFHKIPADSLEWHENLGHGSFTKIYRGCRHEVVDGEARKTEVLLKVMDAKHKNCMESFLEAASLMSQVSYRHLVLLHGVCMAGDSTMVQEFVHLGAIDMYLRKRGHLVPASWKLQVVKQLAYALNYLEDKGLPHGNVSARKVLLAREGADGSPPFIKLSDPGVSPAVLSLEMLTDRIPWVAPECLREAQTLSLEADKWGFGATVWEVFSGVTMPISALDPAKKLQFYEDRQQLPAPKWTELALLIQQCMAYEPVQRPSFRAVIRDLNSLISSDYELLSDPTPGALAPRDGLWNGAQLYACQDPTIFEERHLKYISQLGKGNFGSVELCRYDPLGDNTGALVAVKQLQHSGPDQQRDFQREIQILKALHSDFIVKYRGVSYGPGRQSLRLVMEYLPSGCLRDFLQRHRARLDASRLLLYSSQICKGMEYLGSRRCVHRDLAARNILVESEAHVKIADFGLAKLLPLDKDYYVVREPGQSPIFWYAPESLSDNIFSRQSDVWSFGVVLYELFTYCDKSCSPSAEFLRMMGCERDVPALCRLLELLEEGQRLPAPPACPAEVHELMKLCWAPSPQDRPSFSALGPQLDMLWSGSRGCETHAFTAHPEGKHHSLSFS
UniProt O60674, whole entry: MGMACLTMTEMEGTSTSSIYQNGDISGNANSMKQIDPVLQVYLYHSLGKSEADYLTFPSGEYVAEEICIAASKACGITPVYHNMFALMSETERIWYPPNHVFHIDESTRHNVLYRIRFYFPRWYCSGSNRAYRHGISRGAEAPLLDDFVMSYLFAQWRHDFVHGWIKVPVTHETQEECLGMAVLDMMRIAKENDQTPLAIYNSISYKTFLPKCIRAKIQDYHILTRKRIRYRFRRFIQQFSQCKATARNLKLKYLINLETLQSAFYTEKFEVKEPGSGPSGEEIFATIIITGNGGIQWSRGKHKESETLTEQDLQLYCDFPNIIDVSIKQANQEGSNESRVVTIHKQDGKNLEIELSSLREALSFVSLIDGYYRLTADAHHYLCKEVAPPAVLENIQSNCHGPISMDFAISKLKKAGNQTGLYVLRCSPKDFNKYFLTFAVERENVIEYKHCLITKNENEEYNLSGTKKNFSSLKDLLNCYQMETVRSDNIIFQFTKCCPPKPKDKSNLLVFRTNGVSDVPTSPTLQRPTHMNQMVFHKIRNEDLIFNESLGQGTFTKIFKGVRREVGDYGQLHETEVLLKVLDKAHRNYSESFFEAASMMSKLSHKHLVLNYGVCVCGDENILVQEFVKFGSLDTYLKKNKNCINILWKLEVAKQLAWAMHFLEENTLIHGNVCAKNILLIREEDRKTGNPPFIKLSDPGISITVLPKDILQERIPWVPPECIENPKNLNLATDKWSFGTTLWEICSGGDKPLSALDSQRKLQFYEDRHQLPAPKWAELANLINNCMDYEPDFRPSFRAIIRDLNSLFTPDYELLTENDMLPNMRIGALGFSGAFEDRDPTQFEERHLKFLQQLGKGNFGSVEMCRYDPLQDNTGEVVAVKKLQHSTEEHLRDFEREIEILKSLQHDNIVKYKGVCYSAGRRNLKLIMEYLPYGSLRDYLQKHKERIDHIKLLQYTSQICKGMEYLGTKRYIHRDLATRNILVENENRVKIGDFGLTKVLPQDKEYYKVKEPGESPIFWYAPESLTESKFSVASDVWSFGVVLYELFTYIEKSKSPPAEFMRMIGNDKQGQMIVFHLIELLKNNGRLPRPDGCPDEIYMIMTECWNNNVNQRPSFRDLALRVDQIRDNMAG
UniProt P29597, whole entry: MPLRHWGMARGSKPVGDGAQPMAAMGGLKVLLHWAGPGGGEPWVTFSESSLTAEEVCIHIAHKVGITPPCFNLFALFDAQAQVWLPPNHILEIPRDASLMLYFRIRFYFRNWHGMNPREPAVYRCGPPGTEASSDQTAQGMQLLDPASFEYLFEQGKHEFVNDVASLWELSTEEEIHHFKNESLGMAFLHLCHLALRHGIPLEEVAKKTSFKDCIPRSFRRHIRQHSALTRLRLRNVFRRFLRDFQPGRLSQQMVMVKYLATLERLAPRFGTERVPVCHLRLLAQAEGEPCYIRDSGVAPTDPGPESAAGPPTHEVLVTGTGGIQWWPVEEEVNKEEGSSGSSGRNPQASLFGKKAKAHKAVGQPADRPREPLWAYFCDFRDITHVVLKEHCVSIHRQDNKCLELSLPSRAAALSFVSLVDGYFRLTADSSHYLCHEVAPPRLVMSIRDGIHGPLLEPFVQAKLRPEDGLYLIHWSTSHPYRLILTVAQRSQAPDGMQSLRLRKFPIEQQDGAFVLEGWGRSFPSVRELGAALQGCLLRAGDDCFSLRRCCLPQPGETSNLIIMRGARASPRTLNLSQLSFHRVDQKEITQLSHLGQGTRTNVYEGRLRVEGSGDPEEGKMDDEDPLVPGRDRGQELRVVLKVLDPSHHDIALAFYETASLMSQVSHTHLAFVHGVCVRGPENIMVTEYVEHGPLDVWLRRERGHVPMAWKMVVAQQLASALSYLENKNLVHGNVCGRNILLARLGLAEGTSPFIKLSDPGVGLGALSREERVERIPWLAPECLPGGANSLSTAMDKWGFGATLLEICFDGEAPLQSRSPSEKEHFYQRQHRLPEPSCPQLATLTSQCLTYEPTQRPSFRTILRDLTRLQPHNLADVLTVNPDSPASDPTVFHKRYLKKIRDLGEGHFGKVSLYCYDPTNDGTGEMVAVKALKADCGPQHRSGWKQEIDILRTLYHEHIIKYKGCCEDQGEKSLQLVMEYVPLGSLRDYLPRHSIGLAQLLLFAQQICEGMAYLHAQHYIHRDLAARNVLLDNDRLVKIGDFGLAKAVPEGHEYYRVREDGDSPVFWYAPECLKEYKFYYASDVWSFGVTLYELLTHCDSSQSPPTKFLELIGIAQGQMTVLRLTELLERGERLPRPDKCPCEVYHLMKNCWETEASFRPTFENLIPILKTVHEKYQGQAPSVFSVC
UniProt P23458, whole entry: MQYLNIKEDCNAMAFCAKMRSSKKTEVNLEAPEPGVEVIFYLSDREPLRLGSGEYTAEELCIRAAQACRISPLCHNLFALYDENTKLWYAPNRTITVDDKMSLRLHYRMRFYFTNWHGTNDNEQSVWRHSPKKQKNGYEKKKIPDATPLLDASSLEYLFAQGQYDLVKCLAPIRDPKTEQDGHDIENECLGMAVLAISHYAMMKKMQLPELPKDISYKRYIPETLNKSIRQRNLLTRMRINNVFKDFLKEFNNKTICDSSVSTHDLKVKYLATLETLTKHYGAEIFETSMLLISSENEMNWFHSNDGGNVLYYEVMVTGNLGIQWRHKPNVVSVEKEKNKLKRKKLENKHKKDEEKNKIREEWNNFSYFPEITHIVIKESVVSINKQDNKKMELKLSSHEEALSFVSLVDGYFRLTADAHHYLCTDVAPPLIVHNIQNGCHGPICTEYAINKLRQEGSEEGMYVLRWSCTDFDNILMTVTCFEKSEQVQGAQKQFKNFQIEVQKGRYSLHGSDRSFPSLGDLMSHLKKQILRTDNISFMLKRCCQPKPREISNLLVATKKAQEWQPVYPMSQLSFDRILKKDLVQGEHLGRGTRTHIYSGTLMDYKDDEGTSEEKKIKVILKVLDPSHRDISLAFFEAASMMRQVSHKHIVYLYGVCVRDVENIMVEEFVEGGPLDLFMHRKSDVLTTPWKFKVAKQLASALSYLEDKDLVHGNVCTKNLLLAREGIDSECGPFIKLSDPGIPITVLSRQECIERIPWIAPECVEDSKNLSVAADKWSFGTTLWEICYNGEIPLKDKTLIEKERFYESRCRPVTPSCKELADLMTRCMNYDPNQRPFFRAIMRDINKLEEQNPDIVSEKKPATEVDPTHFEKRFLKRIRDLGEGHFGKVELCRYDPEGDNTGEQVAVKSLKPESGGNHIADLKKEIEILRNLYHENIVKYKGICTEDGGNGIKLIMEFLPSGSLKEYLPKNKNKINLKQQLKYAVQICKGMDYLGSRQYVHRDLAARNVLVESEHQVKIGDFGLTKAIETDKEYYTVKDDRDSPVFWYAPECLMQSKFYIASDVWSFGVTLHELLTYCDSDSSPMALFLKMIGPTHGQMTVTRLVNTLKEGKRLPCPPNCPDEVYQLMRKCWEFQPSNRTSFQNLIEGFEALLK

Experiments:
JAK3 (h) = JAK3 (h) (Homo sapiens (Human), UniProt P52333); test: In vitro activity assay of JAK3 kinase (radiometric 33P-ATP, Eurofins); settings: read-out: JAK3 (IC50); recombinant human JAK3
JAK2 (h) = JAK2 (h) (Homo sapiens (Human), UniProt O60674); test: In vitro activity assay of JAK2 kinase (radiometric 33P-ATP, Eurofins); assay type: biochemical; settings: read-out: JAK2 (IC50); recombinant human JAK2
TYK2 (h) = TYK2 (h) (Homo sapiens (Human), UniProt P29597); test: In vitro activity assay of TYK2 kinase (radiometric 33P-ATP, Eurofins); settings: read-out: TYK2 (IC50); recombinant human TYK2
JAK1 (h) = JAK1 (h) (Homo sapiens (Human), UniProt P23458); test: In vitro activity assay of JAK1 kinase (radiometric 33P-ATP, Eurofins); assay type: biochemical; settings: read-out: JAK1 (IC50); recombinant human JAK1

Row | Structure (SMILES) | IC50 (JAK3 (h)) | IC50 (JAK2 (h)) | IC50 (TYK2 (h)) | IC50 (JAK1 (h))
1 | O=C(Nc1nc2cccc(C3=CCN(C(=O)C4(F)CC4)CC3)n2n1)C1CC1 | 4380 nM | 671 nM | 462 nM | 132 nM
2 | O=C(Nc1nc2nccc([C@H]3CC[C@H](NC(=O)C4CC4(F)F)CC3)c2s1)C1CC1 (some centres unmarked) | 1170 nM | 259 nM | 835 nM | 145 nM
